The experiment concerns the target Type-1 angiotensin II receptor (Oryctolagus cuniculus, UniProt P34976). The experiment is described as follows: In vitro antagonist activity against angiotensin II receptor type 1 in rabbit aorta using [125I]-Sar, Ile AII. In kind it is functional, tissue-based.

Sequences of proteins named here, by UniProt entry; tags and fusion partners are left off.
UniProt P34976, whole entry: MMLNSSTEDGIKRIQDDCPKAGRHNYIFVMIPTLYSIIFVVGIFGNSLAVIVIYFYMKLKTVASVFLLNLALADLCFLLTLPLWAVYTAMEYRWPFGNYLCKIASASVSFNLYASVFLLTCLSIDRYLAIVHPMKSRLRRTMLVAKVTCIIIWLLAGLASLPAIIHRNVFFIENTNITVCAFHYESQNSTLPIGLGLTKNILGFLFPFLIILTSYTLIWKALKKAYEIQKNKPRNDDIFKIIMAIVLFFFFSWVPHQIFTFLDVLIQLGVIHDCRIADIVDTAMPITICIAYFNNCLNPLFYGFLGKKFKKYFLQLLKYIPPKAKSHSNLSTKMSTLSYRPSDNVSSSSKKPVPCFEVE

One may read the IC50 as the concentration that gives 50% inhibition. Low values mean inhibition by little substance, high ones a need for much substance.

For the compound `CCc1nc2c(C)cc(C)nc2n1Cc1ccc2c(c1)CCN2C(c1ccccc1)c1nnn[nH]1` (stereo unspecified), the IC50 amounted to 0.018 µM.

The values above are taken from ChEMBL document CHEMBL1126573, “Non-peptide angiotensin II receptor antagonists. 1. Design, synthesis, and biological activity of N-substituted indoles and dihydroindoles” (J Med Chem, 1993).
